Test results: US7097988B1 (ADVANCED RESEARCH AND TECHNOLOGY INSTITUTE, dated 2006)

Chains of the proteins cited; added tags and fusions are not shown.
UniProt P33535, whole entry V245I: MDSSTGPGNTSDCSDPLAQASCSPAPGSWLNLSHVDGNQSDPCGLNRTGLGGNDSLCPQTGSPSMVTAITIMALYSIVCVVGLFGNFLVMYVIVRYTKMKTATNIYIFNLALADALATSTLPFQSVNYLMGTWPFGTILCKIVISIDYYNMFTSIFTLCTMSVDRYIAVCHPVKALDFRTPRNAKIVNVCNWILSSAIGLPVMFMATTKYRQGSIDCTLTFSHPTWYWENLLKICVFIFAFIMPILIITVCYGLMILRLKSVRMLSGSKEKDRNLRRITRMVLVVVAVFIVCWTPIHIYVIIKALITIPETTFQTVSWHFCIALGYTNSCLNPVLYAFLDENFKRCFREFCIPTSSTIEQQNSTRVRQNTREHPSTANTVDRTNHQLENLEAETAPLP

Molecular target: rat μ opioid receptor (G protein activation) (Rattus norvegicus, UniProt P33535, V245I)

## C[C@@H](NC(=O)[C@@H](N)Cc1ccc(O)cc1)C(=O)NCC(=O)N(C)[C@@H](Cc1ccccc1)C(=O)NCCO [DAMGO, [D-Ala^2, N-Me-Phe^4, Gly-ol^5]-enkephalin]
1 μM of DAMGO, transfected cells
  elevation of low Km GTPase activity: 33%
DAMGO treatment
  GTPase activity in untransfected parental CHO cells: not affected
